Data published in ChEMBL document CHEMBL2062373, “Discovery of pyrroloaminopyrazoles as novel PAK inhibitors” (J Med Chem, 2012).

By UniProt entry, the sequences of proteins in these tests, tags left out. Where a name states a change or a piece, a line headed by the entry shows the natural chain unless it says otherwise.
UniProt O96013: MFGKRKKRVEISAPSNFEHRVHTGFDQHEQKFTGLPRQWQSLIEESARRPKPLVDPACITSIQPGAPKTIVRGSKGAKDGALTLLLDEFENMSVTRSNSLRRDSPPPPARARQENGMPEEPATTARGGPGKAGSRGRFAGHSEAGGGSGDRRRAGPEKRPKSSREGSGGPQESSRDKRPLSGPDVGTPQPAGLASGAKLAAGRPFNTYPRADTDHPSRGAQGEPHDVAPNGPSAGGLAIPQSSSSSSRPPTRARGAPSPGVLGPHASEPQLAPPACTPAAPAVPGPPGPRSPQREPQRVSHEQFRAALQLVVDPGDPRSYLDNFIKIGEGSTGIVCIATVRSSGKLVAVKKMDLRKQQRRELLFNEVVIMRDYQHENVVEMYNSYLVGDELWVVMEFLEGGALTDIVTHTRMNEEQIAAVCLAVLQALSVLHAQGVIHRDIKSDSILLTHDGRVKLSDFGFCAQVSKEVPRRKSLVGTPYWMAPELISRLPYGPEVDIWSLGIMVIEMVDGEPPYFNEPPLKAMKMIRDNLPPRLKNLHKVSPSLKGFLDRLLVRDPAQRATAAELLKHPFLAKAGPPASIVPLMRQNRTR

How the values were obtained:
[1] = target: T1, Serine/threonine-protein kinase PAK 4 (Homo sapiens, UniProt O96013); experiment: Inhibition of PAK4
[2] = target: T1, Serine/threonine-protein kinase PAK 4; experiment: Inhibition of PAK4-mediated GEF-H1 phosphorylation at Ser810 by cell based assay

Ki [1]: 0.012 µM | EC50 [2]: 0.011 µM
Structure (SMILES): CN(C)C[C@@H](OC(=O)N1Cc2c(NC(=O)c3ccccc3)n[nH]c2C1(C)C)c1ccccc1
